Source: patent publication US20240209028A1, “CNP COMPOUNDS” (priority 2022, published 2024)

Tests used:
[1] = PK after i.v. and s.c. administration to Göttingen minipig; conditions: female, in vivo, Göttingen Minipig
Description: (§1) The purpose of this study was to investigate pharmacokinetic and pharmacodynamic properties after intravenous (i.v.) and subcutaneous (s.c.) administration to Gottingen Minipig and domestic LYD pig, and to estimate bioavailability after s.c. dosing. Quantitative plasma analysis of CNP and cGMP levels were performed as described in
(§2) Animals and dosing: The pharmacokinetic and pharmacodynamic studies in Gottingen Minipig or domestic LYD pig were conducted at CRO Minerva Imaging or Novo Nordisk A/S, respectively. CNP compounds were dosed to normal female 1) Gottingen minipigs 6-12 months of age with an average weight of 22 kg or 2) domestic LYD pigs 4-5 months of age with and average weight of 80 kg. At least one week prior to dosing, permanent central venous catheters were implanted for blood sampling and intravenous (i.v.) dosing. For subcutaneous (s.c.) dosing, the pigs were ultrasound scanned and the optimal injection area laterally on the neck marked by a permanent tattoo. An insulin pen (NovoPen Echo or NovoPen 4) and insulin needle (NovoFine 32G/4 mm or NovoTwist 32G/5 mm) were used for accurate deposition of the CNP formulations in the subcutaneous fat tissue with the needle perpendicular to the skin.
(§3) CNP compounds were formulated according to the principles in General Methods of Preparation—Method G and were either A) 8 mM sodium phosphate, 250 mM glycerol, pH 6.5, B) 5 mM sodium acetate, 250 mM glycerol, pH 4.0, C) 5 mM sodium acetate, 240 mM propylene glycol, pH=4.0, D) 8 mM sodium phosphate, 250 mM glycerol, pH 7.5 or E) 20 mM sodium phosphate, 223 mM propylene glycol, pH 6.0.
(§4) Intravenously, the CNP compounds were dosed at 30-60 nmol/kg to Minipig and 15-43 nmol/kg to domestic pig using formulations A-E. Subcutaneously, the CNP compounds were dosed at 55-62 nmol/kg to Minipig and 20-30 nmol/kg to domestic pig using formulations A-D.
(§5) Sampling: Blood samples of approximately 1 mL were collected pre dose and up to 14 days post dose into EDTA-coated tubes (8 mM) for cGMP and CNP compound analysis by LC-MS. In few instances, cGMP was only analysed up to 48 hours post dose after intravenous dosing in domestic LYD pig. The blood samples were kept on wet ice for maximum 30 minutes until centrifugation for 10 minutes at 4° C. and minimum 1500G, and the plasma samples were stored at −20° C. until analysis.
Plasma concentration-time profiles were analyzed by non-compartmental PK analysis using Phoenix WinNonlin 8.1, Pharsight Inc., Mountain View, CA, USA. Calculation of the area under the plasma concentration-time curve (AUC) was based on the “linear up log down” method, and uniform weighting was used for estimation of the terminal rate constant (λz). S.c. bioavailability (F) was calculated as the dose-normalized AUC (AUC/dose) after s.c. administration divided by the AUC/dose after i.v. administration. […]

[2] = PK after i.v. and s.c. administration to domestic LYD pig; conditions: female, in vivo
Description: as §1, §2, §3, §4, §5
Plasma concentration-time profiles were analyzed by non-compartmental PK analysis using Phoenix WinNonlin 8.1, Pharsight Inc., Mountain View, CA, USA. […] S.c. bioavailability (F) was calculated as the dose-normalized AUC (AUC/dose) after s.c. administration divided by the AUC/dose after i.v. administration. […]

[3] = sc, s.c. bioavailability, read-out: F (%), Subcutaneous PK

Compound `CCCC[C@@H]1NC(=O)[C@H](CO)NC(=O)CNC(=O)[C@H]([C@@H](C)CC)NC(=O)[C@H](CCCNC(=N)N)NC(=O)[C@H](CC(=O)O)NC(=O)[C@H](CC(C)C)NC(=O)[C@H](CCCCN)NC(=O)[C@H](CC(C)C)NC(=O)CNC(=O)[C@H](Cc2ccccc2)NC(=O)[C@@H](NC(=O)CNC(=O)[C@H](CCCCN)NC(=O)[C@H](CO)NC(=O)[C@H](CC(C)C)NC(=O)CNC(=O)[C@H](CCCCN)NC(=O)[C@H](CCCCN)NC(=O)[C@H](CCC(N)=O)NC(=O)[C@H](C)NC(=O)CNC(=O)[C@H](CCCCN)NC(=O)[C@H](Cc2ccc(O)cc2)NC(=O)[C@H](CCCCN)NC(=O)[C@H](CCCNC(=N)N)NC(=O)[C@H](C)NC(=O)[C@H](CCC(N)=O)NC(=O)COCCOCCNC(=O)COCCOCCNC(=O)CC[C@H](NC(=O)CCCCCCCCCCCCCCCCC(=O)O)C(=O)O)CSSC[C@@H](C(=O)O)NC(=O)CNC(=O)[C@H](CC(C)C)NC(=O)CNC(=O)[C@H](CO)NC1=O` [Compound 0312] has a clearance ([1]; iv, i.v., read-out: CL (ml/hr/kg), Intravenous PK (converted)) of 0.927 mL/h/kg, a half-life ([1]; iv, i.v., read-out: T½, iv (converted)) of 71 h and a bioavailability [1, 3] of 10%. It also gave a half-life ([1]; sc, s.c., read-out: T½, sc (converted)) of 36 h, a clearance ([2]; iv, read-out: CL (ml/hr/kg), Intravenous PK (converted)) of 1.6 mL/h/kg and a half-life ([2]; iv, read-out: T½, iv (converted)) of 32 h. For the same compound, the half-life ([2]; sc, read-out: T½, sc (converted)) was 29 h and the bioavailability [2, 3] was 11%.
